Laboratory results from BindingDB's records for PubMed 9262370 (Neurogen, 1997).
“And” between values parts separate entries of the source, which are not always exact repeats. Equal values may be shown once.

Sequences of proteins named here, by UniProt entry; tags and fusion partners are left off.
UniProt P21917, whole entry: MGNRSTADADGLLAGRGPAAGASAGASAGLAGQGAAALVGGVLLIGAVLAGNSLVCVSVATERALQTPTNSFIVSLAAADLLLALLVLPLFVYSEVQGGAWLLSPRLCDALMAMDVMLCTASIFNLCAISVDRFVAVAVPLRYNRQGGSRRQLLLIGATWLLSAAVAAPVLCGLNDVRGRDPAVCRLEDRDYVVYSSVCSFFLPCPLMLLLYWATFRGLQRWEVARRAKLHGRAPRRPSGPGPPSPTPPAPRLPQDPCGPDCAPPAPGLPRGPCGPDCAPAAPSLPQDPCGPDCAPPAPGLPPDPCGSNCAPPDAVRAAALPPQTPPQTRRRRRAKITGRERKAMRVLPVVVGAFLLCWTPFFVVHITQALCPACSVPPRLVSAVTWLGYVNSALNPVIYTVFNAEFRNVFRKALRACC

Molecular target: D(4) dopamine receptor (Homo sapiens, UniProt P21917)

Ki: 0.8 µM and 1.3 µM
SMILES: CCN1CCCC1CNC(=O)c1cc(S(N)(=O)=O)ccc1OC (stereo unspecified) [N-[(1-ethylpyrrolidin-2-yl)methyl]-2-methoxy-5-sulfamoylbenzamide]
